Source: patent publication US20130071340A1, “POLYOL PARTIAL ESTERS FOR USE IN COSMETICS” (priority 2010, published 2013)

Key:
[1] = UV filter solubility in the emollients; format: physicochemical; details: for UV filter solubility: Benzophenone-3: maximum soluble amount of benzophenone-3 (Uvinul M 40) in the emollient at 22 °C
Source text: This operation was repeated until the maximum soluble amount of the UV filter was exceeded. At higher concentrations, often a longer stirring time of several hours is necessary for complete dissolution. When in this way the maximum concentration had been determined approximately, for fine determination the concentration range was repeated around this maximum concentration with smaller initial weighed amounts of the UV filter.

[2] = Penetration tests of cosmetic active substances from a standard emulsion, prepared pig skin in modified Franz diffusion cells (OECD TG 428); format: in vitro ADME; details: Franz cell, 24 h, 32 °C, mean of six

| Substance | UV filter solubility: Benzophenone-3 [1] | UV filter solubility: Ethylhexyl triazone ([1]; maximum soluble amount of ethylhexyl triazone (Uvinul T 150) in the emollient at 22 °C) | Active substance in the receptor % ([2]; phytosphingosine salicylate 0.5 wt % in standard emulsion with 15 wt % emollient) | Active substance in the receptor % ([2]; retinol 0.5 wt % in standard emulsion with 15 wt % emollient) | Active substance in the receptor % ([2]; tocopherol 0.5 wt % in standard emulsion with 15 wt % emollient) |
| --- | --- | --- | --- | --- | --- |
| C12-15 alkyl benzoate | 12.0% | 8.0% | – | – | – |
| Caprylic/capric triglyceride | – | – | 0% | 0% | 0% |
| PPG-15 stearyl ether | 9.0% | – | – | – | – |
